{
  "source": "patent EP0479899B1",
  "about": "“VASODILATORY AND IMMUNE SUPPRESSANT PEPTIDES” (THE PRESIDENT AND FELLOWS OF HARVARD COLLEGE, priority 1989, dated 1991)",
  "key": {"[1]": {"system": "Human macrophages", "experiment": "H₂O₂ production by IFN-γ activated macrophages (scopoletin fluorometric assay)", "assay_type": "cell-based", "conditions": "3 hrs pretreatment", "excerpt": "Monocytes obtained by leukophoresis of healthy volunteers were purified on Ficoll-hypaque and Percoll (Pharmacia, Piscataway, NJ) gradients and placed into microtiter wells (5 x 10⁵/well) in RPMI-1640 (GIBCO, Grand Island, NY) with 5% pooled normal human serum and 1% gentamycin (M.A. Bioproducts, Walkinville, MD). The cells were greater than 95% macrophages as judged by esterase staining. (The Manual of Macrophage Methodology, Herscowitz et al., eds. Marcel Dekker, NY, p. 199 (1981)). After one day in culture, non-adherent cells were rinsed away and the macrophages were treated, e.g., with human CGRP, Calcitonin, or LP as described below. Following treatment, the macrophages were incubated for three days with a concentration of from 100 to 400 units interferon gamma (Amgen Biologicals, Thousand Oaks, CA), in medium with 15% pooled normal human serum, at which time the H₂O₂ concentration in the cells was determined.\nH₂O₂ production by macrophages was determined by fluorometric assay using the fluorophore scopoletin (de la Harpe et al., J. Immunol. Methods 78: 323 (1985)). […] The amount of H₂O₂ released per culture is determined as nanomoles H₂O₂. […] DNA was determined by a fluorescence assay (Kissane et al., J. Biol. Chem. 233: 184 (1958). […]"}, "[2]": {"system": "rabbit skin", "experiment": "Vasodilator assay: erythema induction after intradermal injection into shaved rabbit back", "assay_type": "in vivo", "protocol": "Reversed-phase high-performance liquid chromatography (HPLC) on the extract of 105 pairs of salivary glands is depicted in Figure 1. 105 pairs of salivary glands were dissected in PBS. Lysates were made by freeze-thawing. The extract was spun in a microcentrifuge for 30 seconds before being applied to the column. A C-18 micropellicular HPLC column (Glycotech) was equilibrated with 20% acetonitrile/0.1% trifluoroacetic acid at 50°C at a flow rate of 0.6ml/minute. Three minutes after injection, a linear gradient was run for 20 minutes reaching 44% acetonitrile. Fractions were collected every 30 seconds and assayed for vasodilator activity. The vasodilator assay was performed by diluting material from the gradient 10 fold and injecting 50 µl intradermally into the shaved back of a rabbit. The development of erythema at the injection site corresponded with the peak indicated. One µg of human CGRP, used as a control peptide, eluted as a peak of equal area, five minutes later (not shown). This observation implies that approximately ten nanograms of LP are present per pair of salivary glands.\nThe amount of LP injected into the skin was based on the area of the absorbing peak collected from RP-HPLC. […] The area of resultant erythema was measured at 2 hours (triangles) and again at 4 hours (circles). […]"}, "[3]": {"system": "BALB/c peritoneal macrophages", "experiment": "Macrophage presentation of OVA to OVA-specific T-cell line (³H TdR incorporation)", "assay_type": "cell-based, BALB/c mice", "conditions": "for Response(CPM±SD) to stimulation with 200mg/ml OVA / Response(CPM±SD) to stimulation with 400mg/ml OVA: rat CGRP 1.25 x 10⁻⁷ M preincubation 3 hrs", "excerpt": "An OVA-specific T-cell line was produced in BALB/c mice (Titus et al., S. Immunol. 133:1594 (1984)). The line was L3T4⁺ and was maintained by successive cycles of restimulation and rest in vitro. (Kimono et al., J. Exp. Med. 152:759 (1980)). As a source antigen-presenting cells, BALB/c peritoneal cells (Titus et al., Clin. Exp. Immunol. 55:157, 1984) were placed into microtiter wells (10⁴/well) in Dulbecco's modified Eagle's medium (DMEM) (Maryanski et al., Eur. J. Immunol. 12:401 (1982) supplemented with 5% fetal calf serum (Hyclone, Logan, UT) and cultured overnight. Non-adherent cells were rinsed out of the wells, and medium with or without rat CGRP (1.25 x 10⁻⁷ M) was added as a pre-incubation step. Three hours later the wells were rinsed to remove the CGRP and the indicated number of OVA-specific T-cells (Sigma, St. Louis, MO) were added. At varying times thereafter, the wells were pulsed with lµCi³H methylthymidine (³H TdR) (Amersham, Arlington Heights, IL) and thymidine incorporation was assessed (Titus et al., J. Immunol. 133:1594 (1984)).\nBALB/c peritoneal macrophages (10⁴/well) were used as antigen-presenting cells. The macrophages were preincubated in 1.25 x 10⁻⁷M rat CGRP for three hrs., and the CGRP was then washed away. OVA-specific T-cells and OVA were then added to the cultures to assist the ability of the CGRP-treated macrophages to present antigen as measured by the degree of proliferation of the T-cells. Forty-eight hours later the cultures were pulsed with ³H TdR to assess the degree of proliferation of the T-cells. The numbers in the Table below represent the mean thymidine incorporation of quadruplicate cultures ± SD. Background responses (macrophages + T-cells but no OVA, or T-cells + OVA but no macrophages) ranged between 300 to 500 CPM. Similar results were obtained with varying numbers (10³ to 2 X 10⁴/well) of peritoneal cell macrophages. The results in the Table indicate that the ability of murine macrophages to present OVA to an OVA-specific T-cell line was inhibited by CGRP. Similar results were obtained with different numbers of T-cells and different doses of OVA to stimulate the cultures."}},
  "data": [
    {"substance": "calcitonin gene-related peptide (ACDTATCVTHRLAGLLSRSGGVVKNNFVPTNVGSKAF; Calcitonin gene-related peptide 1; UniProt P06881 83-119, looked up) [CGRP, neuropeptide calcitonin gene-related peptide, human, synthetic; vasodilator comparator and immune suppressant]", "values": [
      {"measurement": "H₂O₂ production at higher concentrations", "setting": "[1]; concentrations above 2.5 x 10⁻⁹ M, IFN-γ 200 units/ml", "value": "completely abrogated"},
      {"measurement": "ability of the macrophages to produce H₂O₂ response to IFN-γ", "setting": "[1]; human CGRP, IFN-γ 100 to 400 units/ml, 72 hrs", "value": "markedly inhibit"},
      {"measurement": "erythema at injection site", "setting": "[2]; at 4 hours after injection, rabbit skin", "value": "only residual erythema"},
      {"measurement": "amount giving an equivalent erythema", "setting": "[2]; two hours after injection, 50 µl of PBS into shaved back of a rabbit, triplicate injections", "value": 50, "unit": "nanograms"},
      {"measurement": "ability of murine macrophages to present OVA to an OVA-specific T-cell line", "setting": "[3]; 1.25 x 10⁻⁷M, preincubation three hrs", "value": "inhibited"},
      {"measurement": "Response(CPM±SD) to stimulation with 200mg/ml OVA", "setting": "[3]; 15,000 T cells/well, medium control 5,710±1,300", "value": "1,620± 910 CPM"},
      {"measurement": "Response(CPM±SD) to stimulation with 400mg/ml OVA", "setting": "[3]; 15,000 T cells/well, medium control 8,450±1,140", "value": "2,620± 700 CPM"},
      {"measurement": "Response(CPM±SD) to stimulation with 200mg/ml OVA", "setting": "[3]; 30,000 T cells/well, medium control 5,230±1,150", "value": "830± 500", "unit": "CPM"},
      {"measurement": "Response(CPM±SD) to stimulation with 400mg/ml OVA", "setting": "[3]; 30,000 T cells/well, medium control 10,970± 800", "value": "3,380±1,870 CPM"}
    ]}
  ]
}
